Antibody variant affinities, Ab-14 light chain, assay B

Binding partner: SARS-CoV-2 spike HR2 peptide, sequence PDVDLGDISGINAS.

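This is the validation round: designs drawn from the data on random variants, tested in the same kind of assay. Their group label is 14L_GP_Gen (GP: Gaussian process model; Gen: genetic algorithm; a sequence that several methods proposed may carry one label only). Affinity was read by AlphaSeq, a pooled yeast mating assay with surface-displayed partners. Mating (16 h, 30 °C) was followed by selection of diploids and sequencing of their barcodes. The ratio of observed to expected reads was calibrated, replicate by replicate, on BCL2-family standards whose Kd was known from biolayer interferometry. Each pool was mated in six replicate cultures.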

Ab-14 is the parent antibody, in scFv form: VH, then the linker GGGGSGGGGSGGGGS, then VL. The heavy chain is unchanged in all variants.
VH: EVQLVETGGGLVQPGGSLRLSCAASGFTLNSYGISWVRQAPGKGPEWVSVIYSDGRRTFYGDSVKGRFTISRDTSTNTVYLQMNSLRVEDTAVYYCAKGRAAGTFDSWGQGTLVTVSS
VL: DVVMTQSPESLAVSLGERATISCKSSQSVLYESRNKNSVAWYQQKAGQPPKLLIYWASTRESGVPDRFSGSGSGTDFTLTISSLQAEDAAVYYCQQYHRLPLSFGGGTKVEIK

Substitutions are numbered in sequence along the VL above, starting at 1 (not Kabat). Scale: log10 of Kd in nM, estimated from mating counts; low values are strong binders. A mean of the replicates is given; it leaves out those without a signal. An entry "ND" has no value in the source: the pair was not observed among the diploids in that replicate. This suggests poor binding but is not conclusive. The parent sequence was in this pool as ten entries: three were never detected, three once, and four in most replicates, with averages from 0.34 to 2.37. Background: pairings of all light chain designs with three empty control strains gave a value in 4% of cases (median 2.64, 5th percentile 1.59). Values in that range, when seen in few replicates, are hard to tell from nonspecific mating. The control count says in how many pairings with the empty strains this scFv gave a signal, with their mean in brackets. In the paper, a design with two or fewer of six values counts as a poor binder. The range of this assay differs from that of the first round, and the authors advise against merging the two.

changes,"log10 Kd, replicates",mean log10 Kd (nM),signal with controls
S25L+S26E+V29M+W56N+T59Q+E61L,-0.13 -0.18 -0.28 -0.55 -0.42 -0.28,-0.31,2/18 (3.11)
S25L+S38N+W56E+S62Q,-0.24 -0.33 -0.50 -0.64 -0.54 -0.20,-0.41,0/18
S25I+S26Q+W56N+E61L,0.08 -0.21 -0.07 -0.05 -0.17 0.02,-0.07,1/18 (2.49)
S25L+S26Q+V29E+W56N+T59Q+Q96D,-0.17 -0.22 -0.22 -0.35 -0.27 -0.24,-0.24,0/18
S25L+Q27W+S38N+W56E,-0.33 -0.57 -0.84 -0.71 -0.84 -0.57,-0.65,0/18
S25I+S33D+W56N+E61C,-0.30 -0.46 -0.38 -0.60 -0.81 -0.42,-0.49,0/18
S25L+Q27G+V29Q+W56N,0.40 0.04 -0.04 -0.31 -0.25 0.26,0.01,0/18
S25L+Q27F+W56D,0.24 0.03 0.00 -0.21 -0.22 0.27,0.02,2/18 (2.51)
S25L+V29W+W56E+Q96A,0.55 0.46 0.10 0.27 0.32 0.32,0.34,1/18 (1.64)
S25V+V29D+W56E+E61C,0.38 ND 0.42 1.46 0.05 0.74,0.61,0/18
S25V+V29W+S38N+W56N,0.13 -0.16 -0.20 -0.36 -0.19 -0.05,-0.14,0/18
S25L+S26P+V29N+W56E,0.03 -0.13 -0.04 -0.15 -0.15 0.07,-0.06,1/18 (3.08)
S25V+V29G+W56E,0.77 0.84 0.90 1.52 1.10 1.06,1.03,0/18
S25L+Q27G+V29W+W56H,-0.53 -0.31 -0.72 -0.69 -0.49 -0.35,-0.52,1/18 (1.81)
S25L+S26P+W56N+T59Q+E61L,0.09 -0.17 -0.34 -0.42 -0.38 -0.18,-0.23,1/18 (4.23)
S25L+V29E+W56N+T59Y+E61M,-0.18 -0.18 -0.46 -0.53 -0.45 -0.29,-0.35,2/18 (2.09)
S25L+V29E+W56N+S62E,0.55 0.25 0.17 0.14 0.30 0.34,0.29,1/18 (2.86)
S25L+S26Q+W56H+E61C,0.35 0.38 0.36 0.18 0.06 0.46,0.30,1/18 (3.10)
S25L+V29M+N35W+W56N+T59Q,-0.02 0.00 -0.04 0.13 -0.15 0.10,0.00,2/18 (1.79)
S25L+L30P+W56N+S58N,-0.27 -0.37 -0.19 -0.42 -0.40 -0.09,-0.29,0/18
S25V+V29W+W56E+T59Q,0.08 0.25 -0.23 -0.02 0.00 0.19,0.04,1/18 (2.70)
S25L+V29M+N35M+W56N,0.09 -0.04 -0.13 -0.17 0.03 -0.13,-0.06,0/18
S25L+S33D+W56N+S62M,-0.17 -0.36 -0.44 -0.39 -0.42 -0.35,-0.36,1/18 (2.65)
S25L+S26Q+V29E+W56E,0.43 -0.84 -0.11 -0.42 -0.21 -0.02,-0.20,0/18
L30P+W56E+Q96D,1.07 1.56 1.39 1.09 1.68 1.21,1.34,1/18 (2.84)
S25V+V29W+S38A+W56N+T59Q,-0.09 -0.19 -0.25 -0.34 -0.30 -0.15,-0.22,2/18 (2.33)
S25V+N35V+W56N+T59Q,0.02 0.13 -0.10 -0.27 -0.02 0.10,-0.02,0/18
S25L+S28L+V29W+W56H,0.45 0.43 0.37 0.54 0.16 0.55,0.42,2/18 (3.59)
S25L+S26Q+W56Q+E61M,0.15 0.10 0.09 -0.25 -0.05 0.18,0.04,1/18 (2.45)
S25I+V29D+W56G,-0.44 -0.55 -0.38 -0.51 -0.52 -0.29,-0.45,0/18
S25V+W56N+S103H,-0.08 -0.17 -0.25 -0.32 -0.29 -0.09,-0.20,3/18 (2.74)
S25L+S26Q+L30P+W56N+S62D,0.05 -0.06 -0.29 -0.06 -0.06 0.18,-0.04,4/18 (2.83)
S25L+V29D+S38A+W56A,-0.07 -0.40 -0.37 -0.21 -0.37 -0.26,-0.28,0/18
S25V+V29Y+W56N+T59Q,0.00 -0.10 -0.33 -0.01 -0.08 0.26,-0.04,3/18 (2.82)
S25L+W56E+E61M+S62V,-0.17 -0.29 -0.41 -0.29 -0.34 -0.19,-0.28,2/18 (2.67)
S25L+S26Q+V29T+W56D,0.09 -0.02 -0.18 -0.07 0.00 0.00,-0.03,0/18
S25L+V29Q+W56G,-0.25 -0.24 -0.37 -0.44 -0.57 -0.31,-0.36,0/18
S25L+S26M+V29Q+W56N,0.09 -0.18 -0.24 -0.12 -0.02 0.02,-0.07,3/18 (3.08)
S25L+Q27M+V29M+W56N+E61L,-0.21 -0.22 -0.43 -0.32 -0.34 -0.30,-0.30,1/18 (1.97)
S25L+S26Q+K36C+W56N+E61C,0.07 0.22 -0.06 0.03 -0.08 0.20,0.06,2/18 (3.45)
S25L+S26D+V29W+W56N+T59Q,-0.01 -0.15 -0.29 -0.44 -0.31 -0.17,-0.23,2/18 (2.21)
S25L+S26P+V29W+W56N+E61L,0.20 0.08 -0.01 -0.01 -0.08 0.16,0.06,0/18
S25V+V29E+N35M+W56N,-0.08 -0.11 -0.27 -0.13 -0.07 -0.01,-0.11,2/18 (4.30)
S25L+S26P+S33D+W56N+T59Q,-0.33 -0.35 -0.49 -0.56 -0.47 -0.44,-0.44,3/18 (2.51)
S25L+S26Q+W56N+E61V,0.17 0.24 0.05 -0.44 -0.19 0.14,0.00,2/18 (3.61)
S25L+L30G+W56E+T59Q,0.22 -0.17 -0.12 -0.03 0.29 0.13,0.05,1/18 (2.91)

Top 5 of the variants detected in all replicates, tightest first:

changes,"log10 Kd, replicates",mean log10 Kd (nM),signal with controls
S25L+Q27W+S38N+W56E,-0.33 -0.57 -0.84 -0.71 -0.84 -0.57,-0.65,0/18
S25L+Q27G+V29W+W56H,-0.53 -0.31 -0.72 -0.69 -0.49 -0.35,-0.52,1/18 (1.81)
S25I+S33D+W56N+E61C,-0.30 -0.46 -0.38 -0.60 -0.81 -0.42,-0.49,0/18
S25I+V29D+W56G,-0.44 -0.55 -0.38 -0.51 -0.52 -0.29,-0.45,0/18
S25L+S26P+S33D+W56N+T59Q,-0.33 -0.35 -0.49 -0.56 -0.47 -0.44,-0.44,3/18 (2.51)

Source: Li et al. 2023 (doi:10.1038/s41467-023-39022-2), MIT Lincoln Laboratory and A-Alpha Bio; data file from the FLAb repository.